Results taken from IntAct's records for PubMed 19202075.

B1: Beta-arrestin-1 (Rattus norvegicus (Rat)), P29066 (parent)
chain: MGDKGTRVFKKASPNGKLTVYLGKRDFVDHIDLVDPVDGVVLVDPEYLKERRVYVTLTCAFRYGREDLDVLGLTFRKDLFVANVQSFPPAPEDKKPLTRLQERLIKKLGEHAYPFTFEIPPNLPCSVTLQPGPEDTGKACGVDYEVKAFCAENLEEKIHKRNSVRLVIRKVQYAPERPGPQPTAETTRQFLMSDKPLHLEASLDKEIYYHGEPISVNVHVTNNTNKTVKKIKISVRQYADICLFNTAQYKCPVAMEEADDTVAPSSTFCKVYTLTPFLANNREKRGLALDGKLKHEDTNLASSTLLREGANREILGIIVSYKVKVKLVVSRGGLLGDLASSDVAVELPFTLMHPKPKEEPPHREVPESETPVDTNLIELDTNDDDIVFEDFARQRLKGMKDDKDEEDDGTGSPHLNNR

Variants of: B1
Details: with src_human SRC

effect of a mutation on the interaction	Variant
decreasing interaction	S412D
